We go through 1 substance from US8568745B2, “Water-soluble drug carrier and process for producing the same” (Kyushu University, National University Corporation, priority 2009, dated 2013).

This data set has as its system B16 melanoma cells. The following applies: 0.10, 0.50, 1.0, 3.0 mg/mL in medium, 6 hours.

Take sucrose laurate ester [L-1695]: the “cytotoxicity (cell viability relative to control)” value is recorded as “at low concentrations, also could be used to prepare a S/W preparation of low cytotoxicity”.
